Literature values as cited in paper PMC9025555, “Chiral Recognition R- and RS- of New Antifungal: Complexation/Solubilization/Dissolution Thermodynamics and Permeability Assay” (Pharmaceutics, 2022).

Details: no reference given; cited from earlier work

OC[C@H]1O[C@@H]2O[C@H]3[C@H](O)[C@@H](O)[C@@H](O[C@H]4[C@H](O)[C@@H](O)[C@@H](O[C@H]5[C@H](O)[C@@H](O)[C@@H](O[C@H]6[C@H](O)[C@@H](O)[C@@H](O[C@H]7[C@H](O)[C@@H](O)[C@@H](O[C@H]8[C@H](O)[C@@H](O)[C@@H](O[C@H]1[C@H](O)[C@H]2O)O[C@@H]8CO)O[C@@H]7CO)O[C@@H]6CO)O[C@@H]5CO)O[C@@H]4CO)O[C@@H]3CO [β-cyclodextrin, β-Cyclodextrin]
aqueous solubility: about 18.5 mg·mL^−1
